Results reported in ChEMBL document CHEMBL3102716, “High-throughput virtual screening identifies novel N'-(1-phenylethylidene)-benzohydrazides as potent, specific, and reversible LSD1 inhibitors” (J Med Chem, 2013).

System: T47D
Experiment: cells
Conditions: Homo sapiens, 96 h

Structure (SMILES)	IC50 [µM]
O=C(N/N=C/c1ccccc1O)c1ccc(O)cc1	2.7
C/C(=N\NC(=O)c1ccccc1)c1cc(Cl)ccc1O	0.352
O=C(N/N=C/c1cc(Cl)ccc1O)c1ccc(O)cc1	0.821
C/C(=N\NC(=O)c1ccc(O)cc1)c1ccccc1O	0.971
O=C(N/N=C/c1ccccc1O)c1ccc(Br)cc1	0.096
O=C(N/N=C/c1ccccc1O)c1cccc(Cl)c1	0.615
